Test results taken from DBAASP.

Tests used:
[1] = test system: Escherichia coli K-12; test: ≥ marks a high value that may be exact or a test limit, other limits are often not marked, values filed in µg/mL are converted to µM
[2] = test system: Staphylococcus aureus ATCC 12600; test: as above

SMILES | MIC [1] [µM] | MIC [2] [µM]
CC[C@H](C)[C@H](NC(=O)[C@H](CCSC)NC(=O)[C@H](CCCN=C(N)N)NC(=O)CNC(=O)[C@H](C)NC(=O)[C@H](Cc1cnc[nH]1)NC(=O)[C@H](Cc1ccccc1)NC(=O)[C@H](CC(C)C)NC(=O)CNC(=O)[C@H](CCCCN)NC(=O)[C@@H](NC(=O)[C@@H](NC(=O)[C@H](Cc1cnc[nH]1)NC(=O)[C@H](Cc1ccccc1)NC(=O)[C@H](Cc1ccccc1)NC(=O)[C@@H](N)Cc1ccccc1)[C@@H](C)CC)[C@@H](C)CC)C(=O)N[C@@H](Cc1cnc[nH]1)C(=O)NCC(=O)N[C@@H](CC(C)C)C(=O)N[C@H](C(=O)O)C(C)C [FFFHIIKGLFHAGRMIHGLV] | 8 (≈ 18.7 µg/mL) | 
CC[C@H](C)[C@H](NC(=O)[C@H](CC(C)C)NC(=O)[C@H](C)NC(=O)[C@@H]1CCCN1C(=O)[C@H](CC(C)C)NC(=O)CNC(=O)[C@@H](NC(=O)[C@@H](NC(=O)[C@H](CC(C)C)NC(=O)[C@@H](NC(=O)[C@H](CCCCN)NC(=O)[C@H](CCCCN)NC(=O)[C@H](C)NC(=O)[C@H](C)NC(=O)[C@H](CO)NC(=O)[C@@H](NC(=O)[C@H](CC(C)C)NC(=O)[C@H](CCCCN)NC(=O)[C@H](CCCCN)NC(=O)[C@@H](NC(=O)[C@H](Cc1ccccc1)NC(=O)[C@H](CO)NC(=O)[C@H](CCCCN)NC(=O)[C@H](Cc1c[nH]c2ccccc12)NC(=O)[C@@H](N)CCCCN)[C@@H](C)CC)[C@@H](C)O)C(C)C)[C@@H](C)O)[C@@H](C)O)C(=O)N[C@@H](CO)C(=O)O [KWKSFIKKLTSAAKKVLTTGLPALIS] | 2 (≈ 5.66 µg/mL) | 16 (≈ 45.3 µg/mL)
CC(C)C[C@H](NC(=O)[C@H](C)NC(=O)[C@H](CCC(=O)O)NC(=O)[C@H](CC(N)=O)NC(=O)[C@H](CC(C)C)NC(=O)[C@@H](N)C(C)C)C(=O)N[C@@H](CC(C)C)C(=O)N[C@@H](CCCN=C(N)N)C(=O)O [VLNEALLR] | ≥ 128 | 
CC(C)C[C@H](NC(=O)[C@H](CC(C)C)NC(=O)[C@H](CC(N)=O)NC(=O)[C@H](CCC(=O)O)NC(=O)[C@H](CC(N)=O)NC(=O)[C@H](CC(C)C)NC(=O)[C@@H](N)C(C)C)C(=O)N[C@@H](C)C(=O)O [VLNENLLA] | ≥ 128 | 

Values after ≈ are worked out from the molar mass of the structure shown.
